Measured values: publication PMC4523931, “Modulation of Aβ42 in vivo by γ-secretase modulator in primates and humans” (Alzheimer's Research & Therapy, 2015)

Experiment: in vivo
Details: female, cynomolgus monkey, CSF and plasma, po, 100 mg/kg, 100 mg/kg oral

Kp (CSF:plasma ratio, monkey, from AUC 0 to 8 h): ~0.01 | Kp (Cmax total in CSF as share of Cmax total in plasma, monkey): ~0.01 | Kp (brain penetration estimated from the CSF to plasma ratio, monkeys): ~0.01
Compound: CC(C)Cc1ccc(C(C)C(=O)O)cc1 (stereo not drawn) [ibuprofen]
